Here are results for one substance from paper PMC5189718 (Journal of the American Chemical Society, 2016).

By UniProt entry, the sequences of proteins in these tests, tags left out.
UniProt P35372, whole entry: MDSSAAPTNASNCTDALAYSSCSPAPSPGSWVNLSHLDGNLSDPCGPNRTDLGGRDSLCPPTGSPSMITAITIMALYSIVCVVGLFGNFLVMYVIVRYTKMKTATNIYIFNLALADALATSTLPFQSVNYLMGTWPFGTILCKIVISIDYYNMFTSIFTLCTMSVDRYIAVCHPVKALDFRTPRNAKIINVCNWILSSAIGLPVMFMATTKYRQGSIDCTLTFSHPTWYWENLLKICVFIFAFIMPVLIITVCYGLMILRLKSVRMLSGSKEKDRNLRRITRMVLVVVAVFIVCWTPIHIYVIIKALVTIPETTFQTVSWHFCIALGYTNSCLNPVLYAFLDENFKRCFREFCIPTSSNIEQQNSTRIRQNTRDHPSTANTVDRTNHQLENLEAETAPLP

This test concerns the target hMOR (Homo sapiens, UniProt P35372). Put plainly: β-arrestin recruitment BRET assay at hMOR. Format: cell-based. The conditions noted are these: β-arrestin-2 BRET, in the presence of GRK2.

Turning to “[D-Ala^2, N-Me-Phe^4, Gly-ol^5]-enkephalin [DAMGO, reference compound]”, the β-arrestin recruitment result is given as “robust recruitment of β-arrestin”.
